Laboratory results published in PubChem BioAssay AID1671188 (National Center for Advancing Translational Sciences (NCATS), 2021).
About 250 (0.25%) of roughly 100,000 compounds were called active. These results got no clear call from the source, so the numbers are uncertain. Calls come from the whole dose curve; as a rule, active = well fitted inhibition curve with a large enough effect; inconclusive = small, poorly fitted or top-dose-only effect; inactive = flat fitted curve, though single readings scatter.

Protein sequences, listed by entry. Tags and fused reporters are not part of them. Lines headed by an entry give the natural chain unless they say otherwise; changes in a name come on top.
UniProt Q8TD30: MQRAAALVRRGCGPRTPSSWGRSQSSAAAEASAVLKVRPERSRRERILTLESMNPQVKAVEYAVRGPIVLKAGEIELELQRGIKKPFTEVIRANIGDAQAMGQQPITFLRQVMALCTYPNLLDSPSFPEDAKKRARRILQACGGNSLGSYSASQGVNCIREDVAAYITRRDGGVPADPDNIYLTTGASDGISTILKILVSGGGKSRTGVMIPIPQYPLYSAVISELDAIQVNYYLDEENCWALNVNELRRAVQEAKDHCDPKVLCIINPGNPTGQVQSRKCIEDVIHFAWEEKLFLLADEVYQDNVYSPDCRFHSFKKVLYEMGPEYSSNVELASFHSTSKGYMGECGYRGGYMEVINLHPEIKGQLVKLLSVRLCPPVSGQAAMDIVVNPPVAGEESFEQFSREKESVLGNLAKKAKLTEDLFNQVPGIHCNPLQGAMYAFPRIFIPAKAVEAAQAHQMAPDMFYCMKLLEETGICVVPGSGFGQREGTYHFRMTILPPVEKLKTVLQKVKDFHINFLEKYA

target: Alanine aminotransferase 2 (Homo sapiens) (UniProt Q8TD30); assay: Primary qHTS assay for inhibitors of Glutamate pyruvate transaminase 2 (GPT2); conditions: Recombinant GPT2, coupled pyruvate oxidase/HRP Amplex Red fluorescence; note: nearly all actives have a fitted effect of over 60% in size
Description: Assay Provider: Zhenghe John Wang Ph.D.
Case Western Reserve University, Cleveland OH
Glutamate pyruvate transaminase 2 (GPT2) catalyzes the reversible transamination of glutamate and pyruvate to provide a-ketoglutarate and alanine. We have optimized an assay for GPT2 enzymatic activity that couples pyruvate formation to detection of fluorescence using an established pyruvate oxidase/horseradish peroxidase / Amplex Red system.
Screening conditions were 250uM a-KG, 2mM L-alanine, and 10ng/uL GPT2 in […] of solution; 10uL of Amplex reaction mix (outlined below) were added so that final concentrations of Amplex reagents in 50uL were 0.2mM ThPP, 0.2U/mL PO and HRP, and 50uM Amplex.
NOTE: The volume of GPT2 in the system depends on the activity of it. The activity is different every batch. You need to test the activity before the assay. For full plate assay with automation, plate 20uL of GPT2 buffer to pin into, then add 10uL of GPT2 dilution followed immediately by 10uL of substrate dilution. 2 Columns of the plate were devoted to GPT2 buffer ([…] PH7.5, 0.0001% Tween) + 50uM AOA (known GPT2 inhibitor) to serve as a positive control. Complete the assay as normal. Amplex-red buffer: […] PH7.5, 1 mM EDTA, 1 mM MgCl2.
1. […]
5. Incubate for 30 minutes at room temperature in the dark, then image using AM_Amplex_Fluorescence on plate reader nearest the window.
Potency is the fitted concentration of half-maximal effect.

Row | Compound | Potency
1 | CN(C)C1(c2ccccc2)CCC2(CC1)OCCc1c2[nH]c2ccc(F)cc12 (configuration not stated) | inconclusive: 35.5 µM
2 | O=C(O[C@H]1CN2CCC1CC2)C1NCc2ccccc2[C@@H]1c1ccccc1 (some centres not stated) | inconclusive: 20 µM
